Patent US10058534B2, “Benzothiophene derivatives and compositions thereof as selective estrogen receptor degraders” (NOVARTIS AG, priority 2013, dated 2018)

By UniProt entry, the sequences of proteins in these tests, tags left out.
UniProt P03372, whole entry: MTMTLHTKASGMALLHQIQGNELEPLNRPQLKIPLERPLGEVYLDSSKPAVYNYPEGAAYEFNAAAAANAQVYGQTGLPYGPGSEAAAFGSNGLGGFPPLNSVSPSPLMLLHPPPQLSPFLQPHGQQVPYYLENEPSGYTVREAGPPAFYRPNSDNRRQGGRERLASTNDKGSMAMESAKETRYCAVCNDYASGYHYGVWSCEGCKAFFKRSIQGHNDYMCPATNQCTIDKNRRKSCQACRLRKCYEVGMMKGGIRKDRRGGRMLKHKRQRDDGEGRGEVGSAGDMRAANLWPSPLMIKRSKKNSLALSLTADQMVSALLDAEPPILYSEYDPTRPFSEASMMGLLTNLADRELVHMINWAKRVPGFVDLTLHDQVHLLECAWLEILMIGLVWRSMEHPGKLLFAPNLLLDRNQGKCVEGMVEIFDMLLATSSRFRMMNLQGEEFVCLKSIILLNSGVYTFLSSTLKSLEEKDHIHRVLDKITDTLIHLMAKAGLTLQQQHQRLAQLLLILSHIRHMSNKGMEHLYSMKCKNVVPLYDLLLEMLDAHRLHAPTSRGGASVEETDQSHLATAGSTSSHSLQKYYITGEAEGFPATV

Target: ERα (Homo sapiens (Human), UniProt P03372)
Assay: ERα degradation (MCF7 cells), in-cell Western
Format: cell-based
Conditions: inflection point of the degradation in response to ligand concentration

Cc1cc(F)ccc1-c1sc2cc(O)ccc2c1Oc1ccc(/C=C/c2nnc(C)n2C)cc1 [Example 106, (E)-3-(4-(2-(4,5-dimethyl-4H-1,2,4-triazol-3-yl)vinyl)phenoxy)-2-(4-fluoro-2-methylphenyl)benzo[b] thiophen-6-ol]
IC50: 4.1 nM

CCc1cccc(CC)c1-c1sc2cc(O)ccc2c1Oc1ccc(/C=C/C(=O)O)cc1 [Example 130, (E)-3-(4-((2-(2,6-diethylphenyl)-6-hydroxybenzo[b]thiophen-3-yl)oxy)phenyl)acrylic acid]
IC50: 5.1 nM
